The record followed here is BindingDB's records for 19027295.

The experiment addresses Neuronal acetylcholine receptor subunit alpha-3 (Homo sapiens, UniProt P32297).

Usually EC50 stands for the midpoint of the concentration-response curve. Low readings indicate higher potency in that assay, high ones lower potency in that assay. In turn, `CNC(=O)OCCC(C)N(C)C` (stereo unspecified) had an EC50 of 170 µM.
